Here are results for 2 substances from paper PMC12155096 (International Journal of Molecular Sciences, 2025).

Chains of the proteins cited; added tags and fusions are not shown.
UniProt P33261, whole entry: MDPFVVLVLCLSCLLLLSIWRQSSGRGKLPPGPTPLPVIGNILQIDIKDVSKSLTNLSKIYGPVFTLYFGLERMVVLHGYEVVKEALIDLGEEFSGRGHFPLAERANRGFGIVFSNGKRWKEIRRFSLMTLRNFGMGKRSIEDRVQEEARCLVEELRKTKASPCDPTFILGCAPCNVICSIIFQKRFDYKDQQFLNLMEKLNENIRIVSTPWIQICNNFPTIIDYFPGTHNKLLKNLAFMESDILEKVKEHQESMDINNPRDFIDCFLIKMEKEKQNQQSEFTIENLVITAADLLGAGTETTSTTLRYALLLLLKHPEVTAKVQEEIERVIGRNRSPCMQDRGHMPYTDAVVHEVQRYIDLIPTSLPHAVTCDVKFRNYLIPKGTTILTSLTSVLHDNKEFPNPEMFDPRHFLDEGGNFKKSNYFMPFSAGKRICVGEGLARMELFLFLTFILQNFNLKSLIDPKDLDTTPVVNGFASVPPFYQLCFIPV
UniProt P05177, whole entry: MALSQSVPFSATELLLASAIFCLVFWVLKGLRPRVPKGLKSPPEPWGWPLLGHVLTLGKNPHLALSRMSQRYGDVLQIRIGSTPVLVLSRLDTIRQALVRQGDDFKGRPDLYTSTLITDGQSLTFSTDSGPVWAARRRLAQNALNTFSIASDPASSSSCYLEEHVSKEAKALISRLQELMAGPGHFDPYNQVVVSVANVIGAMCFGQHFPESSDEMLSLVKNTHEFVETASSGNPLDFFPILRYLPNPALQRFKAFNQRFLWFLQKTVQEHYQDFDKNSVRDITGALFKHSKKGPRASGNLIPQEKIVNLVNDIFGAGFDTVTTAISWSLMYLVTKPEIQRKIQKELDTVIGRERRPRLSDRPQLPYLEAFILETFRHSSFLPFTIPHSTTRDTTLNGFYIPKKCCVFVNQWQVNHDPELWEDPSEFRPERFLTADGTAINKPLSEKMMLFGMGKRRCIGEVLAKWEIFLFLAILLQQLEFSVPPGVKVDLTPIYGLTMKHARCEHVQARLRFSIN
UniProt P11712, whole entry: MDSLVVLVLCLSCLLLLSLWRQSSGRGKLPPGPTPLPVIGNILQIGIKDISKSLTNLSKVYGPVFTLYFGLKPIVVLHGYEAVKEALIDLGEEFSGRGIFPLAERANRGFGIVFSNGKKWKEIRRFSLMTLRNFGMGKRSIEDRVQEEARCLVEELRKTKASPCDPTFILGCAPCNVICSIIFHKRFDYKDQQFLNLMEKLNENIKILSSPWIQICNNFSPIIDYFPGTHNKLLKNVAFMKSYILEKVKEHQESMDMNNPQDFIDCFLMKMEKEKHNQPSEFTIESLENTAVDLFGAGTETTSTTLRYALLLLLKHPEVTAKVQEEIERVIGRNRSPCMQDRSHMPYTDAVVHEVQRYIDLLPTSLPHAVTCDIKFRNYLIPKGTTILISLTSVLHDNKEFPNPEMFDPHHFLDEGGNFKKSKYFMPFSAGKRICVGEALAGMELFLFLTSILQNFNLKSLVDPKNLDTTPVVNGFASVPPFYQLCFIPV
UniProt P10635, whole entry: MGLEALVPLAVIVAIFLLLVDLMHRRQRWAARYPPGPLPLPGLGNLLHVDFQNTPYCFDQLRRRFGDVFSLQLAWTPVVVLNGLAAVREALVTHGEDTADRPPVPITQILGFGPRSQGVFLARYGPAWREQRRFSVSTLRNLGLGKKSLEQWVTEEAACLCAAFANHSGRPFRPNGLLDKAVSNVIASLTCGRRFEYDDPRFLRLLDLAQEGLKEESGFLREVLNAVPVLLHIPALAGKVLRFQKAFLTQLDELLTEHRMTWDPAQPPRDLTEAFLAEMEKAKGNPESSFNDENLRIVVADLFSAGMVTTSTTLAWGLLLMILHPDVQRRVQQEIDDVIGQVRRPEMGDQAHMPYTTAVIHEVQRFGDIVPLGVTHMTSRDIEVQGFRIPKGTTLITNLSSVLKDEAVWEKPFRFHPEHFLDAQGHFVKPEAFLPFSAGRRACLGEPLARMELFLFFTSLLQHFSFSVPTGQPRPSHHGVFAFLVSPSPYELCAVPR
UniProt P08684, whole entry: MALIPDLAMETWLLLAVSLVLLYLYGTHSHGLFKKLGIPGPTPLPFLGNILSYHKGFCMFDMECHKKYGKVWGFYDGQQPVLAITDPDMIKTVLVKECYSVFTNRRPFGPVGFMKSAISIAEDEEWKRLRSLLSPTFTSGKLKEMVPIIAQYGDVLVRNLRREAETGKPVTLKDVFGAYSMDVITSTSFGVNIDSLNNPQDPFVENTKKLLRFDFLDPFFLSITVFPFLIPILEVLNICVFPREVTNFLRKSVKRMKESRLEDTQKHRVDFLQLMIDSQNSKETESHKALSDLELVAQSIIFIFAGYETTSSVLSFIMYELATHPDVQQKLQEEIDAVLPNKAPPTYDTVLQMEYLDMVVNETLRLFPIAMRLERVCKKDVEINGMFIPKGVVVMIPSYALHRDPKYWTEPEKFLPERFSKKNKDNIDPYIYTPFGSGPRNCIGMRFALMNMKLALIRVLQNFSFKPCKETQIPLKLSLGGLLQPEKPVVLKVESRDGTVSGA

pIC50: −log10 of the molar value. Read-outs that look alike come from different tables or passages of the source.

Among the targets are human CYP2C19 (Homo sapiens, UniProt P33261); human CYP1A2 (Homo sapiens, UniProt P05177); human CYP2C9 (Homo sapiens, UniProt P11712); human CYP2D6 (Homo sapiens, UniProt P10635); CYP3A4 (Homo sapiens, UniProt P08684).

As to Diniconazole, at human CYP2C19, the “CYP2C19 Efficacy (in parenthesis)” value is recorded as 0.04 ± 0.01 (-120 ± 17) % and the pIC50 was 7.40. In addition, at human CYP1A2, the “CYP1A2 Efficacy (in parenthesis)” value is given as 39.92 ± 2.7 (-100 ± 7) % and the pIC50 was 4.40. Moreover, at human CYP2C9, the “CYP2C9 Efficacy (in parenthesis)” value is 5.25 ± 0.72 (-104 ± 5) % and the pIC50 was 5.28. Besides, on human CYP2D6 (human), the “CYP2D6 Efficacy (in parenthesis)” value is 38.89 ± 8.14 (-106 ± 9) % and the pIC50 is 4.41. Besides, the “CYP3A4 Efficacy (in parenthesis)” value at CYP3A4 is listed as 0.26 ± 0.04 (-85 ± 1) %.
As to Kadethrin, the pIC50 on human CYP2D6 (read-out: CYP2D6 IC50) was 4.46; on CYP3A4 (read-out: CYP3A4 IC50), 5.61.

The pIC50 is the IC50 on a negative log10 scale, so that one unit is a factor of ten.
